Test results from US20170217976A1, “6-(AMINO ACID)-MORPHINAN DERIVATIVES IN COMBINATION WITH PERMEATION […] FOR USE AS AN ORALLY, […], TRA[…] NASALLY AD[…]” (C[…], priority 2014, published 2017).

Protein sequences, listed by entry. Tags and fused reporters are not part of them. Lines headed by an entry give the natural chain unless they say otherwise; changes in a name come on top.
UniProt P41144: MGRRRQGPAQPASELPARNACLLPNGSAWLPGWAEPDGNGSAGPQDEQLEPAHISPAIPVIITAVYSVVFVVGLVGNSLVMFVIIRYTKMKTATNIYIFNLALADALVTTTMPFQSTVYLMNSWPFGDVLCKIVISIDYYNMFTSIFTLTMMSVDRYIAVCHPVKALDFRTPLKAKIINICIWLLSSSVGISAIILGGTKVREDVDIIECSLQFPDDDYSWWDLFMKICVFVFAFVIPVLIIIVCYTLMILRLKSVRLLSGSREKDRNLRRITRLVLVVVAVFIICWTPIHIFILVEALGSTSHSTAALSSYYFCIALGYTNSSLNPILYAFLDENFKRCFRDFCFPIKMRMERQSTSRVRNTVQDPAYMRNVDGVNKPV

Target: KOR (Cavia porcellus, UniProt P41144)
Test: Opioid receptor binding, KOR, guinea pig brain membranes
Conditions: read-out: Binding Ki (nM) KOR, in vitro binding assay

CO[C@@]12CC[C@@H](N[C@@H](Cc3ccccc3)C(=O)OC(C)(C)C)[C@@H]3Oc4c(O)ccc5c4[C@@]31CCN(C)[C@@H]2C5 [4-t-Bu ester]
Ki: 151 nM
